The record followed here is paper PMC5754923 (Journal of medicinal chemistry, 2017).

One test concerns K562 cells. The experiment in a line: Vγ9Vδ2 T cell mediated lysis of K562 cells. Conditions: 2 hour treatment/4 hour co-culture.
For a further test, the system named is Vγ9Vδ2 T cells. The experiment in a line: Expansion of Vγ9Vδ2 T cells from peripheral blood. To be noted: for Fold difference from HMBPP: EC50 ratio. It is filed as cell-based, human.

Each structure is given as a SMILES string. Some results are limits rather than exact numbers.

Take `CC(C)=CCCP(=O)([O-])CP(=O)([O-])[O-].[Na+].[Na+].[Na+]` [Compound 8, Sodium (((4-methylpent-3-en-1-yl)oxidophosphoryl)methyl)phosphonate]: in the test on K562 cells, the “Fold difference from HMBPP, lysis” value was below 0.000016x. Further, the “Fold difference from HMBPP” value in the test on Vγ9Vδ2 T cells was below 0.0000051x.

On to `COP(=O)(CC/C=C(\C)CO)CP(=O)(OC)OC` (centres unmarked) [Compound 9, Dimethyl (E)-(((5-hydroxy-4-methylpent-3-en-1-yl)(methoxy)phosphoryl)methyl)phosphonate], for which the “Fold difference from HMBPP, lysis” value with K562 cells was below 0.000016x. The “Fold difference from HMBPP” value with Vγ9Vδ2 T cells is listed as below 0.0000051x. In the case of `C/C(=C\CCP(=O)([O-])CP(=O)([O-])[O-])CO.[Na+].[Na+].[Na+]` [Compound 10, Sodium (E)-(((5-hydroxy-4-methylpent-3-en-1-yl)oxidophosphoryl)methyl)phosphonate], the Selectivity index with Vγ9Vδ2 T cells (IC50 / EC50 in expansion assay) is given as above 3.8.
